# AlphaSeq binding of Ab-14 light chain variants to a spike HR2 peptide

From the AlphaSeq antibody data of Li et al. 2023 (doi:10.1038/s41467-023-39022-2), copy in the FLAb collection.

Binding partner: SARS-CoV-2 spike HR2 peptide, sequence PDVDLGDISGINAS.

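The parent was found by panning a naive human phage display library on the peptide. This is the validation round: designs drawn from the data on random variants, tested in the same kind of assay. Their group label is 14L_GP_Gibbs (GP: Gaussian process model; Gibbs: Gibbs sampling; a sequence that several methods proposed may carry one label only). AlphaSeq pools MATa yeast showing the antibodies with MATalpha yeast showing the peptide. Binding brings cells together so that they mate, and sequencing counts the barcode pairs among the diploids. A regression on co-assayed BCL2-family reference pairs converts the normalised counts of each replicate to an apparent Kd. The assay was run in six technical replicates.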

Ab-14 is the parent antibody, in scFv form: VH, then a (GGGGS)3 linker, then VL. The heavy chain is unchanged in all variants.
VH: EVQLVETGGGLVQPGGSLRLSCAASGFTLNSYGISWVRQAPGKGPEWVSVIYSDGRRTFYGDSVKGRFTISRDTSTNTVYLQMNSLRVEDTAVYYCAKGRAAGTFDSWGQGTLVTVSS
VL: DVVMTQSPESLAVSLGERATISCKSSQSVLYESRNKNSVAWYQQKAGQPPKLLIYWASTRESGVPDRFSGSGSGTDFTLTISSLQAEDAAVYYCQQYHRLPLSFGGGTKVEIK

Each variant is given by its three light chain CDRs, as the data file delimits them; those of the parent are KSSQSVLYESRNKNSVA, WASTRES, QQYHRLPLS.
Numbers give log10(Kd / nM), so 0 is 1 nM and 3 is 1 µM. Smaller is tighter.
Replicates are averaged; those with no signal do not enter the mean.
"nd" means that the variant was in the library but no mating with the target was seen in that replicate; the authors take this as a sign of poor binding, and no number exists.
Values of this round are not directly comparable with the first-round values of the same sequences.

With KFVMSWGYESRNKNAVA, HASQRCD, QQYHRLPLS the result was 0.53, 0.55, 0.51, 0.46, 0.43, 0.76 (mean 0.54; controls 0 of 18).
With WLSMSVMQESRNKNSVA, SASTREL, QQYHRLPLS the result was 0.66, 1.78, 1.14, 1.34, 1.64, 1.80 (mean 1.39; controls 1 of 18).
With KCDPSHLGESRNKNAVA, QASTREE, QQYHRLPLS the result was -0.19, -0.31, -0.30, -0.41, -0.45, -0.24 (mean -0.32; controls 2 of 18).
With KLQQSMLYESRNVNSVA, DASTRES, QQYHRLPLS the result was -0.11, -0.30, -0.43, -0.35, -0.40, -0.24 (mean -0.30; controls 3 of 18).
With KCEQSWGYESRNKNNVA, NASQRES, QQYHRLPLS the result was 2.07, 0.62, 0.84, 0.25, 0.34, 0.61 (mean 0.79; controls 0 of 18).
With KLEDSNLYESRNGNSVA, NASTRES, QQYHRLPLS the result was 0.38, 0.39, 0.19, 0.13, 0.28, 0.45 (mean 0.30; controls 2 of 18).
With KLSGSELGESRNKNSVA, SADTRLE, QQYHRLPLS the result was 0.00, 0.03, -0.06, -0.19, 0.07, 0.04 (mean -0.02; controls 1 of 18).
With KLEGSVEYESRWKNSVA, HASTREV, QQYHRLPLS the result was 1.01, 0.73, 1.34, 0.56, 0.83, 1.08 (mean 0.92; controls 1 of 18).
With KLPNSQLYESRNKNQVA, SASTREM, QQYHRLPLS the result was 0.41, 0.41, 0.38, 0.41, 0.37, 0.57 (mean 0.43; controls 2 of 18).
With KLQQSMLYESRNDNSVA, HASMRES, QQYHRLPLF the result was 0.53, 0.53, 0.41, 0.40, 0.36, 0.51 (mean 0.46; controls 0 of 18).
With KMAQGWGYESRNKNNVA, NASQRES, QQYHRLPLS the result was -0.20, -0.06, -0.34, -0.31, -0.23, -0.16 (mean -0.22; controls 0 of 18).
With KVSIEVLMGDRNKNSVA, DASTRES, QQYHRLPLS the result was 0.01, 0.05, -0.36, -0.27, -0.13, -0.12 (mean -0.13; controls 1 of 18).
With KLQWSNLYWSRNKNSVA, QASTRMM, QQYHRLPLS the result was 0.48, 1.07, 1.16, 0.60, 1.14, 0.89 (mean 0.89; controls 0 of 18).
With KLPQKWLYESRNKNNVA, SASCRES, QQYHRLPLS the result was 0.26, -0.01, 0.23, 0.02, 0.11, 0.34 (mean 0.16; controls 0 of 18).
With KLLQSELDESRNDNSVA, NASHRLS, QQYHRLPLS the result was 0.43, 0.34, 0.65, 0.46, 0.61, 0.53 (mean 0.50; controls 0 of 18).
With KLSFSWWMESRNKNNVA, HASKRES, QQYHRLPLS the result was 1.03, 0.51, 0.67, 0.70, 0.86, 0.84 (mean 0.77; controls 1 of 18).
With KMSESWLYESQNSNNVA, HASQRMS, QQYHRLPLS the result was 0.07, 0.20, 0.08, -0.05, -0.01, 0.10 (mean 0.07; controls 1 of 18).
With KFSQSALYEERMKNSVA, NASQRLS, QQYHRLPLS the result was 0.53, -0.18, -0.05, -0.03, -0.13, -0.24 (mean -0.02; controls 1 of 18).
With KMEQSNGYESRNKNSVA, NASTRES, QQYWRLPLS the result was -0.20, -0.33, -0.36, -0.69, -0.34, -0.40 (mean -0.38; controls 0 of 18).
With KLEWSNLYESRNCNSVA, NASTREE, QQYHRLPLS the result was 0.64, 0.60, 0.49, 0.36, 0.34, 0.48 (mean 0.48; controls 1 of 18).
With KQQQEWEGQSRNKNSVA, HASKRES, QQYHRLPLS the result was nd, nd, nd, nd, nd, 3.09 (controls 0 of 18).
With KLQQSRLYEDRNANNVA, NASQRES, QQYHRLPLS the result was -0.18, -0.42, -0.57, -0.63, -0.51, -0.22 (mean -0.42; controls 0 of 18).
With KLSQSVEYESRNKNSVA, DAQQRES, QQYHRLPLS the result was 0.01, -0.27, -0.21, -0.32, -0.27, 0.00 (mean -0.18; controls 1 of 18).
With KFSQKVLYESRAKNSVA, DASQRLS, QQYHRLPLS the result was 0.12, 0.35, 0.62, 0.08, 0.27, 0.53 (mean 0.33; controls 0 of 18).
With KLSQGVLMESRNKNSVA, NAGQREE, QQYHRLPLS the result was -0.28, -0.22, -0.25, -0.35, -0.36, -0.05 (mean -0.25; controls 1 of 18).
With KSSGSVEMLSRNVNSVA, EASTREL, QQYHRLPLS the result was 0.27, 0.07, -0.06, -0.18, 0.05, -0.03 (mean 0.02; controls 0 of 18).
With KISQSQLYEDRNHWSVA, NASTRCS, QQYHRLPLS the result was 0.47, 0.22, 0.08, 0.06, 0.24, 0.54 (mean 0.27; controls 1 of 18).
With KLSNSQEYESRWKNSVA, NASTREL, QQYHRLPLS the result was 0.42, 0.50, 0.11, 0.29, 0.10, 0.71 (mean 0.36; controls 1 of 18).
With KLSQSVEQLSRNKNSVA, QASTREV, QAYHRLPLS the result was 0.66, 0.21, 0.34, 0.40, 0.32, 0.37 (mean 0.38; controls 0 of 18).
With KLSGSVMMLSRADNSVA, DASTRES, QQYHRLPLS the result was 1.08, 1.21, 1.67, 1.18, 0.79, 0.97 (mean 1.15; controls 0 of 18).
With LVSQQNLYEDRNKNSVA, NASQRLL, QQYHRLPLS the result was 0.44, 0.18, 0.15, 0.07, 0.27, 0.34 (mean 0.24; controls 2 of 18).
With KLDQWVEMGSRNKNSVA, SASQRFS, QQYHRLPLS the result was 0.35, 1.20, 0.38, 0.22, -0.14, 0.51 (mean 0.42; controls 0 of 18).
With KLQQQVQYESRNWNSVA, NASDRQS, QQYHRLPLS the result was 0.71, 0.28, 0.06, -0.09, 0.38, 0.41 (mean 0.29; controls 0 of 18).
With KMSQSVLMEMRNGNSVA, NASTRES, QQYHRLPLS the result was 0.32, 0.01, 0.14, 0.37, 0.12, 0.33 (mean 0.21; controls 1 of 18).
With KFSMSEDYESRNSNSVA, NAQTRMS, QQYHRLPLS the result was 1.04, 0.85, 0.50, 0.20, 0.42, 0.53 (mean 0.59; controls 1 of 18).
With KVSQSEPYESRNKNSVA, NASYRMS, QQYHRLPLS the result was 0.36, 0.20, 0.27, 0.11, 0.14, 0.36 (mean 0.24; controls 0 of 18).
With KLSGQMLYEERNSNSVA, HASHRES, QQYHRLPLS the result was 0.25, 0.21, 0.47, 0.37, 0.15, 0.29 (mean 0.29; controls 1 of 18).
With KFQQSELYGERNSNSVA, HASLRES, QQYHRLPLS the result was 0.33, 0.05, 0.07, -0.05, 0.07, 0.67 (mean 0.19; controls 0 of 18).
With KSEQGFLYENRNKNSVA, SASQRES, QQYHRLPLS the result was 0.30, 0.12, 0.06, -0.03, 0.05, 0.09 (mean 0.10; controls 2 of 18).
With KAQQSNPYESRNKWSVA, NASTREK, QQYHRLPLS the result was 1.43, 1.16, 1.33, 0.58, 1.22, 0.73 (mean 1.08; controls 0 of 18).
With KVSSAFLYEQRNKNSVA, QASQRES, QQYHRLPLS the result was 0.11, 0.12, 0.11, 0.03, -0.04, 0.27 (mean 0.10; controls 2 of 18).
With KLSSSWLMEQRNVNSVA, QASTRLL, QQYHRLPLS the result was 0.18, 0.43, 0.31, 0.35, 0.43, 0.37 (mean 0.35; controls 0 of 18).

Extract of 6 entries:

KLSGSVMMLSRADNSVA, DASTRES, QQYHRLPLS: 1.08, 1.21, 1.67, 1.18, 0.79, 0.97 (mean 1.15; controls 0 of 18).
KLQQSMLYESRNVNSVA, DASTRES, QQYHRLPLS: -0.11, -0.30, -0.43, -0.35, -0.40, -0.24 (mean -0.30; controls 3 of 18).
LVSQQNLYEDRNKNSVA, NASQRLL, QQYHRLPLS: 0.44, 0.18, 0.15, 0.07, 0.27, 0.34 (mean 0.24; controls 2 of 18).
KLSGSELGESRNKNSVA, SADTRLE, QQYHRLPLS: 0.00, 0.03, -0.06, -0.19, 0.07, 0.04 (mean -0.02; controls 1 of 18).
KLQQSMLYESRNDNSVA, HASMRES, QQYHRLPLF: 0.53, 0.53, 0.41, 0.40, 0.36, 0.51 (mean 0.46; controls 0 of 18).
KMAQGWGYESRNKNNVA, NASQRES, QQYHRLPLS: -0.20, -0.06, -0.34, -0.31, -0.23, -0.16 (mean -0.22; controls 0 of 18).

Of ten entries with the parent sequence, four were seen in most replicates (averages 0.34 to 2.37), three in one and three in none, so single entries are noisy.
In the paper, a design with two or fewer of six values counts as a poor binder.
Background: pairings of all light chain designs with three empty control strains gave a value in 4% of cases (median 2.64, 5th percentile 1.59). Values in that range, when seen in few replicates, are hard to tell from nonspecific mating. Also given: how often the same scFv was detected with the empty control strains.